Source: EP2096114A1, “Insecticidal Derivates of Substituted Phosphorylated Phenylalkyl Iminooxazolines and Iminothiazolines” (dated 2009)

Key:
Aphis gossypii [1] = assay: Aphis gossypii - test (cotton leaves sprayed); details: application rate of 20 ppm; cotton leaves (Gossypium hirsutum) sprayed
Myzus persicae [2] = assay: Myzus persicae - test (spray application); details: application rate of 20 g/ha; spray application on Chinese cabbage leaf-disks; all instars
Myzus persicae [3] = assay: Myzus persicae - test (cabbage plants drenched); details: application rate of 20 ppm; cabbage plants (Brassica oleracea) drenched
Aphis gossypii [4] = assay: Aphis gossypii - test (cotton plants drenched); details: application rate of 20 ppm; cotton plants (Gossypium hirsutum) drenched

Measured: mortality in %

CCCSP(=S)(OCC)N1CCOC1=NC(C)c1cc(F)cc(F)c1 (stereo not shown)
≥ 80%: Aphis gossypii [1] | Myzus persicae [2] | Myzus persicae [3]

CCCSP(=S)(OCC)N1CCOC1=NC(C)c1cccc(F)c1 (stereo not shown)
≥ 80%: all assays above
